# Biological target: Muscarinic acetylcholine receptor M1 (Rattus norvegicus, UniProt P08482)
# Protein sequences, listed by entry. Tags and fused reporters are not part of them. Lines headed by an entry give the natural chain unless they say otherwise; changes in a name come on top.
# UniProt P08482: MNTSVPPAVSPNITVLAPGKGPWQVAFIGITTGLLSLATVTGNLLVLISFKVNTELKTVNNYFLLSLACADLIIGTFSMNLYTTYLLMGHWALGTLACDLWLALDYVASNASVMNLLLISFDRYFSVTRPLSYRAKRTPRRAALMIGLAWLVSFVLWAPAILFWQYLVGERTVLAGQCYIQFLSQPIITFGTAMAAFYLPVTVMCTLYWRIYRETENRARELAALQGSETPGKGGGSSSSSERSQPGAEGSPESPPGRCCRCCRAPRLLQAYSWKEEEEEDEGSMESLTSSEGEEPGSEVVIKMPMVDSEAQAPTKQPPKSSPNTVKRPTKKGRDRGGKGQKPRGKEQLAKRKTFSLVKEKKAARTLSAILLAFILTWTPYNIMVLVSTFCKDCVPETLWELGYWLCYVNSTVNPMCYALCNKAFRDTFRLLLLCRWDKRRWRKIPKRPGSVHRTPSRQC
# Assay: Binding affinity against Muscarinic acetylcholine receptor M1 sites of rat
# Outline: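 Whole rat brain minus cerebellum, membranes made by two-step centrifugation and resuspended in 10 mM Tris pH 7.4. Assay buffer is 10 mM Tris-HCl with 5 mM MgCl2. Membrane is preincubated 5 min with the compound, then [3H]pirenzepine 3 nM final is added for 1 h at 37 °C. Filtration through PEI-soaked GF/B. Compounds run at 0.01 nM–100 μM, ≥3 independent experiments in triplicate.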
smiles,measurement,value
CN1C2CCC1CC(OC(c1ccc(F)cc1)c1ccc(F)cc1)C2 (stereo unspecified) [DIFLUOROBENZTROPINE],Ki,9 nM

# From ChEMBL document CHEMBL1130275, “Novel N-substituted 3 alpha-[bis(4'-fluorophenyl)methoxy]tropane analogues: selective ligands for the dopamine transporter” (J Med Chem, 1997)
